Each structure is given as a SMILES string.

The chains behind the UniProt entries cited, without tags or fusion partners.
UniProt P28564, whole entry: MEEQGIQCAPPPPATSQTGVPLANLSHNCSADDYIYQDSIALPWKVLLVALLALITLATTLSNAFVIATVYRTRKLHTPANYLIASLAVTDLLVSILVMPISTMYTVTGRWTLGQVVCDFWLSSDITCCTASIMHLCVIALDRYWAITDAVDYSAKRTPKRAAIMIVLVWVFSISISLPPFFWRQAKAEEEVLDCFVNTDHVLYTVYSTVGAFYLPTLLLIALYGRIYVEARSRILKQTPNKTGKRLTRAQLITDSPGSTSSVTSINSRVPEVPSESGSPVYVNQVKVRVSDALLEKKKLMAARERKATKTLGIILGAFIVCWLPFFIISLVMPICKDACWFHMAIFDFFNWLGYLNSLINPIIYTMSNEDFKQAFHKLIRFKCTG

The target of this experiment is 5-hydroxytryptamine receptor 1B (Rattus norvegicus, UniProt P28564).

The compound `CCCN(CCC)C1CCc2cccc(O)c2C1` (stereo unspecified) had a Ki above 10 µM.

Source of the values: BindingDB's records for PubMed 1738111 (University of Texas, 1992).
